# From ChEMBL document CHEMBL1131066, “2-Substituted aminopyrido[2,3-d]pyrimidin-7(8H)-ones. structure-activity relationships against selected tyrosine kinases and in vitro and in vivo anticancer activity” (J Med Chem, 1998)
# Chains of the proteins cited; added tags and fusions are not shown. Lines headed by an entry give the natural chain unless they say otherwise; changes in a name come on top.
# UniProt P05622: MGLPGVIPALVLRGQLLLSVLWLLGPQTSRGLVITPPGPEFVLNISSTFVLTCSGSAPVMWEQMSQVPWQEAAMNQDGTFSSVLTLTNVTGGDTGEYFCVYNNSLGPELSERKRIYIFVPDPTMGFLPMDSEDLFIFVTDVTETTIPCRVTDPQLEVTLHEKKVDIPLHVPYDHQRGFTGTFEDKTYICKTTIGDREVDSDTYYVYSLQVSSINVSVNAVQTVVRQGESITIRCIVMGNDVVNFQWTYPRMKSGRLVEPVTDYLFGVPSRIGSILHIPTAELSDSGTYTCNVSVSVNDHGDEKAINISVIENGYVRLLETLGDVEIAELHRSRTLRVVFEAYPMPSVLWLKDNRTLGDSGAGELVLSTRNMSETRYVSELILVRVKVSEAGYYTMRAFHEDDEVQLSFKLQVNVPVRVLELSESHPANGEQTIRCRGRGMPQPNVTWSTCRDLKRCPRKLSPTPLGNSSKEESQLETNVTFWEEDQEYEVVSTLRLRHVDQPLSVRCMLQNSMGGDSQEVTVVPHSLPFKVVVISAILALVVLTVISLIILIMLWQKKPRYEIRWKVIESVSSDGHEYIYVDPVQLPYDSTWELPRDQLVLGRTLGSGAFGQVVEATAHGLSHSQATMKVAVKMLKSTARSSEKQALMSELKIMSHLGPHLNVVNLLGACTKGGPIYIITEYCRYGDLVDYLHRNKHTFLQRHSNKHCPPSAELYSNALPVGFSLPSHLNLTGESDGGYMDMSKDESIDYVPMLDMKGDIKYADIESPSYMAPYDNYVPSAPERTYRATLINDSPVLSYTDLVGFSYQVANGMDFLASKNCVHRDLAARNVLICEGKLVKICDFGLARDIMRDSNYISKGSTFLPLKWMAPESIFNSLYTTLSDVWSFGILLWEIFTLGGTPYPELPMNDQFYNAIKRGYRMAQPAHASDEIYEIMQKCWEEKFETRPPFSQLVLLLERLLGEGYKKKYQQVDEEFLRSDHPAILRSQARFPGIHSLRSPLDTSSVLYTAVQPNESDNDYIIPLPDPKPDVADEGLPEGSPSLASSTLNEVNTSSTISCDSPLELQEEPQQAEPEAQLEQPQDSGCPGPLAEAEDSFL
# UniProt P11362, whole entry: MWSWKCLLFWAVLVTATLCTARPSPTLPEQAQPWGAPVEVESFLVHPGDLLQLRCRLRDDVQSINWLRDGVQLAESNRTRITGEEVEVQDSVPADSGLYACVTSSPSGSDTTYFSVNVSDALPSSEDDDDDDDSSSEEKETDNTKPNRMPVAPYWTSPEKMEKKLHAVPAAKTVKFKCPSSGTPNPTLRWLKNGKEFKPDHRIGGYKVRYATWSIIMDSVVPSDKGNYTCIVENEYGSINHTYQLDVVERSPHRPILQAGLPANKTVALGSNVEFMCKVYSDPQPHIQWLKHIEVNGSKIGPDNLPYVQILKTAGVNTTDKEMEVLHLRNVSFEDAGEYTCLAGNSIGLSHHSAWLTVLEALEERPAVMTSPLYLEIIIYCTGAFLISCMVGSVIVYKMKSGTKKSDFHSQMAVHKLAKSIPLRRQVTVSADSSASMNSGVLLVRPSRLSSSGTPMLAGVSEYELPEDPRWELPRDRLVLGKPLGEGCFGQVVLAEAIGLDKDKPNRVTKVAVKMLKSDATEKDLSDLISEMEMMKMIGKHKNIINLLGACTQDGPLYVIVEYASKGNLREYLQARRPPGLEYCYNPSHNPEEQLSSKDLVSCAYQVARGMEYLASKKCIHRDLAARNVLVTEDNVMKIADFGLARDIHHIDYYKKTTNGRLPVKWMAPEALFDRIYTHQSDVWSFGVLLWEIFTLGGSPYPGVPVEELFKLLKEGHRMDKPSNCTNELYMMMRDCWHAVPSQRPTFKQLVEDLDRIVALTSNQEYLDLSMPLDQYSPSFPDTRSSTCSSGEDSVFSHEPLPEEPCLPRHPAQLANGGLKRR
# Legend:
# [1] = biological target: Platelet-derived growth factor receptor beta (Mus musculus, UniProt P05622)
# [2] = biological target: Fibroblast growth factor receptor 1 (Homo sapiens, UniProt P11362); assay: Inhibitory concentration evaluated against fibroblast growth factor receptor 1.
IC50 [1] [nM],IC50 [2] [nM],SMILES
890,,CN1CCN(CCCCNc2ncc3cc(-c4c(Cl)cccc4Cl)c(=O)n(C)c3n2)CC1
530,370,COc1cccc(Nc2ncc3cc(-c4c(Cl)cccc4Cl)c(=O)n(C)c3n2)c1
120,,Cn1c(=O)c(-c2c(Cl)cccc2Cl)cc2cnc(Nc3cccnc3)nc21
